Data taken from PMC11322472, “Enhancing [^177Lu]Lu-DOTA-TATE therapeutic efficacy in vitro by combining it with metronomic chemotherapeutics” (EJNMMI Research, 2024).

Experiments:
Assay type in all cases: cell-based, human
U2OS + SSTR2A cells [1] = conditions: label = 24 h pre-treatment (152 µg/mL hydroxyurea, 4 ng/mL gemcitabine, 200 ng/mL triapine), 4 h recovery, [^177Lu]Lu-DOTA-TATE 24 h, 25 nM, MTT at day 7, mean ± SD, N = 3
Protocol: Excess MTT was then removed. Formazan crystals were dissolved with 50 μL/well in dimethylsulfoxide (DMSO) for 2 min at room temperature (RT) under gentle agitation. Well absorbance at 570 nm was then measured on a UV/V is absorbance microplate reader (SPECTROstar® Nano, BMG LABTECH). Metabolic viability, following signal-to-background correction, was calculated as the percentage signal in treated cells normalised to the signal in untreated cells.

[2] = test system: SSTR2A expression of U2OS + SSTR2A cells; assay: SSTR2A expression post chemotherapeutics (flow cytometry); conditions: 24 h chemotherapeutic (152 µg/mL hydroxyurea, 4 ng/mL gemcitabine, 200 ng/mL triapine), 4 h after treatment, mean ± SD, N = 3–9
Protocol: (§1) All studies were performed in cells at 4 h after removal of each chemotherapeutics treatment.
(§2) For SSTR2A expression studies, 1.5 × 10^5 U2OS/U2OS + SSTR2A and BON1/BON1 + SSTR2A cells were seeded in 6-well plates and placed in the incubator to adhere overnight. Cells were treated with chemotherapeutics for 24 h at the same concentrations stated above. Determination of SSTR2A expression levels by flow cytometry post chemotherapeutics was performed as described in the Supplementary methods.
(§3) For flow cytometry analysis of SSTR2A expression, cells (1x10^6) were detached from culture vessels and pelleted by centrifugation (1,000 g for 2 min) and the media aspirated. Cells were then resuspended in 4% v/v PFA and fixed at RT for 10 min. After, cells were pelleted by centrifugation and excess PFA aspirated prior to resuspension in 0.5% v/v Triton™ X-100 (Thermo Scientific™) and permeabilised at RT for 10 minutes. Cells were once again pelleted by centrifugation and excess Triton™ X-100 removed prior to resuspension in blocking solution (PBS containing 2.5 mM EDTA and 2% w/v BSA). Cells were stained with UMB1 primary antibody (1:400 dilution, Abcam) for 30 minutes at RT before pelleting cells and aspirating excess antibody. Cells were washed once with blocking solution prior to repeating pelleting and aspiration. Cells were then resuspended and incubated with Alexa Fluor™ 647 secondary antibody (1:1000 dilution, Abcam) for 30 minutes at RT, protected from light. After incubation, excess antibody was removed prior to a final wash with blocking solution. Cells analysed using the BD LSRFortessa™. Results are expressed as the median fluorescence intensity (MFI) of the overall acquired signal, analysed using FlowJo version 10.9.0 (BD, USA).

[3] = test system: SSTR2A expression of BON1 + SSTR2A cells; assay: as above; conditions: 24 h chemotherapeutic (152 µg/mL hydroxyurea, 2 ng/mL gemcitabine, 100 ng/mL triapine), 4 h after treatment, mean ± SD, N = 3–9
Protocol: as §1, §2, §3

U2OS + SSTR2A cells [4] = assay: Cell cycle post chemotherapeutics (EdU/DAPI flow cytometry); conditions: asynchronous U2OS + SSTR2A cultures; 24 h treatment (152 µg/mL hydroxyurea, 4 ng/mL gemcitabine, 200 ng/mL triapine), 4 h after removal; untreated 45.5 ± 3.3%; mean ± SD, N = 3
Protocol: as §1
(§4) For cell cycle studies, cells were pulse-labelled with medium containing 20 µM 5-ethynyl-2’-deoxyuridine (EdU, Click-iT™ Plus EdU Flow Cytometry Assay Kit, Invitrogen) for 1 h prior to harvesting by Accutase detachment. Cells were then fixed, permeabilized, and blocked before 30-minute incubation at RT following manufacturer instructions and labelled with Alexa Fluor™-488/-647-labelled-picolyl azide. Cells were further washed, resuspended in 4′,6-diamidino-2-phenylindole (DAPI; 1:1,000 dilution in PBS) and stained for 20 min prior to dilution in blocking solution and analysis (BD LSRFortessa™). Results were analyzed using FlowJo (v10.9.0).

BON1 + SSTR2A cells = assay: as above; conditions: asynchronous BON1 + SSTR2A cultures; 24 h treatment (152 µg/mL hydroxyurea, 2 ng/mL gemcitabine, 100 ng/mL triapine), 4 h after removal; untreated 35.8 ± 2.6%; mean ± SD, N = 3
Protocol: as §1, §4

For `Nc1ccn([C@@H]2O[C@H](CO)[C@@H](O)C2(F)F)c(=O)n1` [Gemcitabine, gemcitabine], the “percentage viability after [^177Lu]Lu-DOTA-TATE in chemotherapeutic pre-treated cells” value (“percentage viability” below) (U2OS + SSTR2A cells [1]) was 24.5 ± 5.4%, the “mean increase in SSTR2A expression from baseline expression levels” value (from here on “mean increase in SSTR2A expression”) [2] was 20.8 ± 29.7% and the “mean increase in SSTR2A expression” value [3] was 39.6 ± 45.4%. The S-phase sub-population (U2OS + SSTR2A cells [4]) was 85.9 ± 1.9% and the S-phase sub-population (BON1 + SSTR2A cells) was 82.2 ± 8.2%.
For `NC(=O)NO` [Hydroxyurea, hydroxyurea], the “percentage viability” value (U2OS + SSTR2A cells [1]) was 18.8 ± 5.2%, the “mean increase in SSTR2A expression” value [2] was 46.9 ± 28.2% and the “mean increase in SSTR2A expression” value [3] was 48.8 ± 12.0%. The S-phase sub-population (U2OS + SSTR2A cells [4]) was 84.8 ± 2.5% and the S-phase sub-population (BON1 + SSTR2A cells) was 86.4 ± 2.2%.
With `NC(=S)N/N=C/c1ncccc1N` [Triapine, triapine] the “percentage viability” value (U2OS + SSTR2A cells [1]) was 23.6 ± 7.3%, the “mean increase in SSTR2A expression” value [2] was 36.2 ± 32.4% and the “mean increase in SSTR2A expression” value [3] was 119.3 ± 40.9%. The S-phase sub-population (U2OS + SSTR2A cells [4]) was 86.6 ± 2.2% and the S-phase sub-population (BON1 + SSTR2A cells) was 88.0 ± 3.6%.
